Source: ChEMBL document CHEMBL1129058, “Indole inhibitors of human nonpancreatic secretory phospholipase A2. 2. Indole-3-acetamides with additional functionality” (J Med Chem, 1996)

Protein sequences, listed by entry. Tags and fused reporters are not part of them. Lines headed by an entry give the natural chain unless they say otherwise; changes in a name come on top.
UniProt P00592: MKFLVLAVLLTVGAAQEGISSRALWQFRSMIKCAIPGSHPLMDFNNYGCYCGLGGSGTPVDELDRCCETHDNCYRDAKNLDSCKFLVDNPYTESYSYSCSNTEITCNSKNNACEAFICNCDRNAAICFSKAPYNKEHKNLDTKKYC

Target: Phospholipase A2, major isoenzyme (Sus scrofa, UniProt P00592)
Assay: Compound was tested for the inhibitory activity against porcine pancreatic PLA2

IC50: 610 nM
SMILES: Cc1c(CC(N)=O)c2c(OCCCC(=O)O)cccc2n1Cc1ccccc1
